Measured values published in BindingDB's records for PubMed 8510008 (Eli Lilly, 1993).
pKi: −log10 of the molar value.

Sequences of proteins named here, by UniProt entry; tags and fusion partners are left off. A change or cut given only in a name is not applied to a line headed by its entry.
UniProt P28335: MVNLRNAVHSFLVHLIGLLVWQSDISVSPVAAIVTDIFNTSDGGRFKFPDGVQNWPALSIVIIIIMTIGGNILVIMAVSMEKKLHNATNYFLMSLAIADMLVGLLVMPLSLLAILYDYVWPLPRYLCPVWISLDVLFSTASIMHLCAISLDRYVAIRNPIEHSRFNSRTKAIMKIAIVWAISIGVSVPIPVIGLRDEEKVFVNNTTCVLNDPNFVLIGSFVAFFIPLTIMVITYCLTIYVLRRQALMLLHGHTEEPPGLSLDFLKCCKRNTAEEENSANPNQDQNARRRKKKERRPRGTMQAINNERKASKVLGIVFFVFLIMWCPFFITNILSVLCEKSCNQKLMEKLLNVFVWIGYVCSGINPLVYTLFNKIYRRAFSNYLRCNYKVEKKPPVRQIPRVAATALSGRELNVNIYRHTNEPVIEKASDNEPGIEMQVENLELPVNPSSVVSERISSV

Target: 5-hydroxytryptamine receptor 2C (Homo sapiens, UniProt P28335)

CN1C[C@@H](NS(=O)(=O)N(C)C)C[C@@H]2c3cccc4c3c(cn4C)C[C@H]21 [MESULERGINE]
pKi: 7.31
